What was measured:
CK1δ = molecular target: T1, CK1δ (Homo sapiens, UniProt P48730); assay: In vitro kinase assay (33P, peptide substrate); assay type: biochemical; conditions: 50 μM ATP
T1 construct: purchased Upstate

Amino acid sequences for entries named in this document (tags omitted). A change or cut given only in a name is not applied to a line headed by its entry.
UniProt P48730: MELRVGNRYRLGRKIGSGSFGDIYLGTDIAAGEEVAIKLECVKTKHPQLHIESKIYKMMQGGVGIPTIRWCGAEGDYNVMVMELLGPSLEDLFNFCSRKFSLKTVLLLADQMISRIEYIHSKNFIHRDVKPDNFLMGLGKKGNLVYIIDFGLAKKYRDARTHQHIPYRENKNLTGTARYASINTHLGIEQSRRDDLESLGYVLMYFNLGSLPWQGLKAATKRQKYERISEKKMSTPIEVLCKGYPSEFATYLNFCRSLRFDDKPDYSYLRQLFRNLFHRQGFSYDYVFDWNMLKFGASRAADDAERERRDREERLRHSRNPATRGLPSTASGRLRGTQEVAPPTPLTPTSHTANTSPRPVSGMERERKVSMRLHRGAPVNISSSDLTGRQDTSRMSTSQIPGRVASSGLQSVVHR
UniProt P49674: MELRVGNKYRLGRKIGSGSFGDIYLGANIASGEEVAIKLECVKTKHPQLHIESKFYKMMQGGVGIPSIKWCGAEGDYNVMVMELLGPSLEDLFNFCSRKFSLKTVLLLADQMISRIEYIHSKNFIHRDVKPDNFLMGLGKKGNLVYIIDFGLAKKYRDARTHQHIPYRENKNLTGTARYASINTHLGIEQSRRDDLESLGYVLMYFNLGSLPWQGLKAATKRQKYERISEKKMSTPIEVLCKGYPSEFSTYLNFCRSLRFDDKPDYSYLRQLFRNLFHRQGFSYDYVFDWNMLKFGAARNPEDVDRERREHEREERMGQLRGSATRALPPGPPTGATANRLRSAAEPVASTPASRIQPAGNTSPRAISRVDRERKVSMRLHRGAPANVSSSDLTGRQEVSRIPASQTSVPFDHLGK

CK1ε = molecular target: T2, CK1ε (Homo sapiens, UniProt P49674); assay: In vitro kinase assay (33P, peptide substrate); assay type: biochemical; conditions: 50 μM ATP
T2 construct: purchased Invitrogen

IC50 (CK1δ): 2 µM | IC50 (CK1ε): 4.1 µM
SMILES: NC(=O)c1ccc(-c2nc(-c3ccc4c(c3)OCO4)c(-c3ccccn3)[nH]2)cc1 [SB431542, 4-(4-benzo-[1,3]dioxol-5-yl-5-pyridin-2-yl-1H-imidazol-2-yl)benzamide]
